“Also recorded” adds a separate entry of the source.
B1: ADC16: anti-FRα antibody A conjugated with CB07-Exatecan; DAR 8 (conjugate)
heavy: QVQLVQSGVEVKKPGASVKVSCKASGYSFTGYFMNWVRQAPGQGLEWIGRIHPYDGDTFYNQNFKDKATLTVDKSTTTAYMELKSLQFDDTAVYYCTRYDGSRAMDYWGQGTTVTVSSASTKGPSVFPLAPSSKSTSGGTAALGCLVKDYFPEPVTVSWNSGALTSGVHTFPAVLQSSGLYSLSSVVTVPSSSLGTQTYICNVNHKPSNTKVDKKV[letters of human IgG1 Fc omitted]
light: EIVLTQSPATLSLSPGERATLSCKASQSVSFAGTSLMHWYQQKPGQAPRLLIYRASNLEAGVPARFSGSGSKTDFTLTISSLEPEDFAVYYCQQSREYPYTFGGGTKVEIKRTVAAPSVFIFPPSDEQLKSGTASVVCLLNNFYPREAKVQWKVDNALQSGNSQESVTEQDSKDSTYSLSSTLTLSKADYEKHKVYACEVTHQGLSSPVTKSFNRGEC
B2: ADC14: anti-B7H3 antibody A conjugated with CB07-Exatecan; DAR 8.0 (conjugate)
heavy: EVQLVQSGAEVKKSGESLKISCKASGYTFTDYDINWVRQMPGKGLEWIGWIFPGDDTTKYNEKFKGQVTLSADKSTNTAYMQWSSLKASDTAMYYCARSPSFDYWGQGTLVTVSSASTKGPSVFPLAPSSKSTSGGTAALGCLVKDYFPEPVTVSWNSGALTSGVHTFPAVLQSSGLYSLSSVVTVPSSSLGTQTYICNVNHKPSNTKVDKKV[letters of human IgG1 Fc omitted]
light: QIVLTQSPGTLSLSPGERATLSCSASSTIGFMYWYQQKPGQAPRRWIYDTSKLASGVPDRFSGSGSGTDYTLTISRLEPEDFAVYYCHQRSSYPTFGQGTKVEIKRTVAAPSVFIFPPSDEQLKSGTASVVCLLNNFYPREAKVQWKVDNALQSGNSQESVTEQDSKDSTYSLSSTLTLSKADYEKHKVYACEVTHQGLSSPVTKSFNRGEC
B3: ADC15 (conjugate)
heavy: EVQLVQSGAEVKKSGESLKISCKASGYTFTDYDINWVRQMPGKGLEWIGWIFPGDDTTKYNEKFKGQVTLSADKSTNTAYMQWSSLKASDTAMYYCARSPSFDYWGQGTLVTVSSASTKGPSVFPLAPSSKSTSGGTAALGCLVKDYFPEPVTVSWNSGALTSGVHTFPAVLQSSGLYSLSSVVTVPSSSLGTQTYICNVNHKPSNTKVDKKV[letters of human IgG1 Fc omitted]
light: QIVLTQSPGTLSLSPGERATLSCSASSTIGFMYWYQQKPGQAPRRWIYDTSKLASGVPDRFSGSGSGTDYTLTISRLEPEDFAVYYCHQRSSYPTFGQGTKVEIKRTVAAPSVFIFPPSDEQLKSGTASVVCLLNNFYPREAKVQWKVDNALQSGNSQESVTEQDSKDSTYSLSSTLTLSKADYEKHKVYACEVTHQGLSSPVTKSFNRGEC

How the values were obtained:
[1] = test system: Ovarian Cancer OV3756 xenograft; assay: HuPrime ovarian cancer OV3756 subcutaneous xenograft model; format: in vivo, mouse
Description: 1. Pharmacodynamic evaluation of the test drug in HuPrime® Ovarian Cancer OV3756 Subcutaneous Xenograft Female BALB/c Nude Mouse Model.
The tumor tissues were harvested from HuPrime® Ovarian Cancer Xenograft Model OV3756 bearing mice, cuted into tumor masses with a diameter of 2-3 mm, and grafted subcutaneously in the right anterior scapula of 6-7 week old female BALB/c nude mice.
The day of grouping was set as day 0, and the administration began on day 0.

JEG-3 cells = assay: Balb/c nude mice JEG-3 subcutaneous model; format: in vivo, mouse; conditions: single administration; for TGI: 8th day after administrating
Method: The 6-7 week old female BALB/c nude mice were selected, and the 1×10^6 JEG-3 cells suspending in 100 μL EMEM medium containing 50% Matrigel were grafted subcutaneously on the right side of the mice.
After Administrating, the tumor volumes were measured twice a week.

FRα negative A549 cells = assay: Bystander effect of ADC16, conditioned medium cytotoxicity assay (CCK-8); format: cell-based
Method: 3) Repeat steps 1) and 2) on the second and third day.
4) On the fifth day, the A549 cell density was adjusted to 40,000 cells/mL with DMEM+2% FBS medium, inoculated 100 μL per well in a 96-well plate subsequently, and placed in a Series II Water Jacketed CO2 Incubator under the condition of standing for 2 hours at 37° C. and 5% CO2. And the culture supernatant of steps 1), 2), and 3), were added with 100 μL per well. 100 μL of 3000 nM Exatecan was added in column 1 as a lethal control, 100 μL of DMEM+2% FBS medium was added in column 12 as a blank control.
The culture condition was 37° C., 5% CO2.
6) The culture medium was discarded, and DMEM medium containing 10% CCK-8 was added. Placed in Series II Water Jacketed CO2 Incubator, and developed color at 37° C. in the dark for 1 hour. Then it was read on a microplate reader SpectraMax M3, and the wavelength of light absorbed was 450 nm.
7) Organized the data. The formula for calculating cell viability is as follows: […]

[2] = test system: B7-H3 negative cells CHO-K1; assay: In-vitro cytotoxicity of ADC14 (CCK8); format: cell-based
[3] = test system: B7-H3 negative cells CHO-K1-FRα; assay: Bystander effect of ADC14, transfer of culture supernatant (CCK8); format: cell-based; conditions: 3 days treatment, supernatant on CHO-K1-FRα for 4 days; FIG. 6
[4] = test system: human liver cancer Hep 3B cell line; assay: Subcutaneous xenograft model of human liver cancer Hep 3B; conditions: for Mean tumor volume ± SEM (mm^3) / TGI (%): single administration, Day 25

| Molecule | TGI (%) ([1]; 2.5 mg/kg i.v., single administration, Day 28) | Mean tumor volume (Day 28) ([1]; 2.5 mg/kg i.v., single administration, mean ± standard error) [mm^3] | inhibition of tumor growth (in words) ([1]; ADC17 5 mg/kg, ADC16 2.5 mg/kg, FIG. 15) | TGI (JEG-3 cells; 2.5 mg/kg i.v.) [%] | TGI (JEG-3 cells; 5 mg/kg i.v.) [%] | tumor inhibitory effect (in words) (JEG-3 cells; 2.5 and 5 mg/kg i.v., 28 days, FIG. 16) | direct killing effect on A549 cells (FRα negative A549 cells; FRα negative A549 cells) | effect of conditioned medium of ADC-treated JEG-3 cells on viability of A549 cells (FRα negative A549 cells; JEG-3 treated 2, 3, 4 days, supernatant on A549 for 3 days, FIG. 7) | killing effect on B7-H3 negative cells (in words) [2] | killing effect of culture supernatant of ADC-treated B7-H3 negative cells CHO-K1-FRα on CHO-K1-FRα [3] | killing effect of culture supernatant of ADC-treated B7-H3 positive cells CHO-K1-B7-H3 on CHO-K1-FRα [3] | Mean tumor volume ± SEM (mm^3) ([4]; 2.5 mg/kg i.v.) | TGI (%) ([4]; 2.5 mg/kg i.v.) | Mean tumor volume ± SEM (mm^3) ([4]; 5 mg/kg i.v.) | TGI (%) ([4]; 5 mg/kg i.v.) | growth inhibition effect on Hep 3B tumor (in words) ([4]; 2.5 and 5 mg/kg, FIG. 14) |
| --- | --- | --- | --- | --- | --- | --- | --- | --- | --- | --- | --- | --- | --- | --- | --- | --- |
| B1 | 86.81 | 277.59 ± 68.82 | significantly inhibit tumor growth | 98.98 | 100.00 | significant tumor inhibitory effect in a dose-dependent manner; also recorded: complete the tumor regression and maintained it to the end of the experiment | basically has no killing effect | viability of A549 cells decreased significantly; also recorded: significant killing effect on A549 cells | – | – | – | – | – | – | – | – |
| B2 | – | – | – | – | – | – | – | – | no significant killing effect | no significant killing effect | significant killing effect | 139 ± 58 | 93.86 | 30 ± 10 | 98.66 | very strong growth inhibition effect on Hep 3B tumor in a dose-dependent manner |
| B3 | – | – | – | – | – | – | – | – | – | – | – | – | – | 858 ± 112 | 62.02 | – |
